Data reported in patent US20230167118A1, “DEGRADATION OF BRUTON'S TYROSINE KINASE (BTK) BY CONJUGATION OF BTK INIDBITORS WITH E3 LIGASE LIGAND AND METHODS OF USE” (BEIGENE, LTD., priority 2020, published 2023).

Chains of the proteins cited; added tags and fusions are not shown.
UniProt Q06187, whole entry: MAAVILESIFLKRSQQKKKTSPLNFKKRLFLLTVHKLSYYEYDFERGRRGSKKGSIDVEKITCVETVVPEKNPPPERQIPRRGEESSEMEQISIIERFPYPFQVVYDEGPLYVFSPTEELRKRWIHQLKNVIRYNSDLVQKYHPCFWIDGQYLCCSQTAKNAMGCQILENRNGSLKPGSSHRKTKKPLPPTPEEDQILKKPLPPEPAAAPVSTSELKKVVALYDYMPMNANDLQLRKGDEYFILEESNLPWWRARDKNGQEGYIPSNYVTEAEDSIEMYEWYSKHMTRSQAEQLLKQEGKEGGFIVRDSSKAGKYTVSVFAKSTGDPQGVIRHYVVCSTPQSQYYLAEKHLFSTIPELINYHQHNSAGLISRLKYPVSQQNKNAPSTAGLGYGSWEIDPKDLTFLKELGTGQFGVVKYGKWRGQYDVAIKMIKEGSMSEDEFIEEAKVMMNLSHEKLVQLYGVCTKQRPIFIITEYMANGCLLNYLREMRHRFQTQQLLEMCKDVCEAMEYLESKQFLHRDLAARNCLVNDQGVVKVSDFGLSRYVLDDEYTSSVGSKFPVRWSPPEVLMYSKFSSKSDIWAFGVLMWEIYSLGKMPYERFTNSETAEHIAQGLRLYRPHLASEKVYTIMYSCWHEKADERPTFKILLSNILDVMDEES

Key:
BTK = BTK (Homo sapiens, UniProt Q06187); assay: Cell Degradation: BTK degradation in TMD-8 cells, HTRF assay; conditions: 6 h treatment, IC50 (DC50) of BTK degradation
HEK-293 cells = assay: HEK-293 Cytotoxicity Assay (CellTiter-Glo); conditions: 72 h incubation, CellTiter-Glo luminescence
Experimental: HEK-293 Cytotoxicity Assay
HEK-293 cells are treated with compounds diluted in 0.2% DMSO, dilution is done according to the following protocol: (1) make 500× stock solution in DMSO from 5 mM by 4-fold dilution, total 8 doses were included; (2) make 2× solution in cell culture medium by transferring 0.5 ul 500× stock solution into 125 ul medium; (3) 50 ul of 2× solution is added to cells and incubate for 72 h.
Add 25 μl of the CellTiter-Glo®Reagent [I (Promega)—Cat No. G7572] to each well in the 96-well plate. Mix contents for 2 minutes on an orbital shaker to induce cell lysis. Allow the plate to incubate at room temperature for 10 minutes to stabilize luminescent signal. Record luminescence on BMG PheraStar with luminescence protocol.
The IC50 value of a compound can be obtained by fitting the following equation. Y=Bottom+(TOP−Bottom)/(1+((IC50/X)^hillslope)) Wherein, X and Y are known values, and IC50, Hillslope, Top and Bottom are the parameters obtained by fitting with software. Y is the inhibition percentage (calculated from the equation), X is the concentration of the compound; IC50 is the concentration of the compound when the 50% inhibition is reached. The smaller the IC50 value is, the stronger the inhibitory ability of the compound is. […]

DC50 (BTK): 0.4 nM
Compound: C[C@@H](NC(=O)c1nc(C(C)(C)C)no1)C1CCN(c2ncnc3[nH]c(-c4ccc(N5CCN(CC6CCN(c7ccc(N8CCC(=O)NC8=O)cc7)CC6)CC5)nc4)cc23)CC1
IC50 (HEK-293 cells): > 10000 nM
